Most of the hits are listed elsewhere, so they are rarer here than in the full data.
Tested on: A673/TR/shEF
Experiment: cell viability (LOESS-normalised, relative to median of negative controls) (log2 ratio); higher = more viable cells (less compound effect), active = hit call of the paper (over 3 MAD below the median)
Details: library screen: screen1, treatment time: 72 h
In short: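 A673/TR/shEF Ewing sarcoma cells were plated at 1,500 per well in 384-well plates and cultured with or without doxycycline, added 24 h before compounds, to induce EWS-FLI1 shRNA knockdown. Library compounds at two or more concentrations, alongside DMSO controls, were applied for three days. Cell viability was measured by CellTiter-Glo luminescence on an Envision reader. Readings were LOESS-corrected per plate, divided by the median of negative controls and log2-transformed, and hits were wells lying at least three median absolute deviations from the median of all screened wells.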

Measured: cell viability (log2)

COc1c2ccccc2nc2occc12
inactive: 0.25 µM, EWS-FLI1 expression: high (no doxycycline) 0.0257 | 0.25 µM, EWS-FLI1 expression: low (doxycycline-induced shRNA knockdown) 0.165 | 2.5 µM, EWS-FLI1 expression: high (no doxycycline) 0.0579 | 2.5 µM, EWS-FLI1 expression: low (doxycycline-induced shRNA knockdown) 0.167

— the supplement of paper PMC6089552
